Kd data for 1 molecule are collected here from patent US20140112930A1 (published 2014).

Chains of the proteins cited; added tags and fusions are not shown. Chains listed by the source or under a name are the forms on record and can include a tag or linker.
Dimeric Mouse Ang-2FD conjugated to human IgG1, one chain, as listed by the source limits assumed: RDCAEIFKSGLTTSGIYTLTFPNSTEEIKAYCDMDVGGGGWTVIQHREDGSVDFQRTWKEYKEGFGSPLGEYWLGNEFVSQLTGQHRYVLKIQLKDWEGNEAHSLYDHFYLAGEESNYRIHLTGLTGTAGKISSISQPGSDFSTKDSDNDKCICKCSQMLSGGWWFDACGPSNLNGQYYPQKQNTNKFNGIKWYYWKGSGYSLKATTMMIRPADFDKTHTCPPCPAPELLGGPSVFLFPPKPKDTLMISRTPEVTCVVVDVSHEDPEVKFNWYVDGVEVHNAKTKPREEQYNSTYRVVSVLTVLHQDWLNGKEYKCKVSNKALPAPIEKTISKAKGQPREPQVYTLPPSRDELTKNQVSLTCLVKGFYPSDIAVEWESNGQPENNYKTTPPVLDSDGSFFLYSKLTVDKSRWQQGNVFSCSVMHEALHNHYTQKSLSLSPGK

The experiment addresses T1, Dimeric Mouse Ang-2FD conjugated to human IgG1 (mouse (Mus musculus); human).
T1 construct: also called Mouse Ang-2FD-hFc
The experiment in a line: SPR, captured Ab, RT.

B1: H1H744N (antibody, V domains shown)
VH: QVQLVQSGVEVKKPGASVKVSCKTSGYTFSNNGFSWVRQAPGQGLEWLGWISGYNGNTNYAQKFQGRVTMTTDTSTSTAYMELRTLRSDDTAVYYCARDQDYSNFHWLDPWGQGTLVTVAS
VL: DIQMTQSPSSVSASVGDRVIITCRASQGLSSWLAWYQQKPGTAPKLLIHSASSLQTGVPSRFSGSGSGTEFALTINSLQPEDFGTYYCQQANSFPLTFGGGTRVEIK
The molecule B1 gave a Kd of 0.158 nM.

The term Kd denotes the equilibrium constant for the complex coming apart. Higher therefore signals a looser complex.
